According to US11608318B2, “Solid state forms of Omecamtiv mecarbil and Omecamtiv mecarbil diHCl” (ASSIA CHEMICAL INDUSTRIES LTD., priority 2018, dated 2023):

Assay: Solid state form stability under stress conditions (high temperature, high relative humidity; mechanical)
Details: stressed conditions, e.g. high temperature and relative humidity
Excerpt: (§1) Pharmaceutical molecules may display solid to solid phase transformations and transformations between polymorphs; which may detected by exposure of the solid state form to stress conditions of e.g., high temperature and high relative humidity.
as §1

Citric Omecamtiv mecarbil diHCl [form OCC-1]
thermodynamic and mechanical stability of the solid state form (polymorphic conversion): thermodynamically and mechanically stable
